Test results as given in patent publication US20180217131A1, “Novel Cell Based Assay” (Medical Diagnostic Laboratories, LLC, priority 2017, published 2018).

Sequences of proteins named here, by UniProt entry; tags and fusion partners are left off. A line that says so, or that is headed by a name, gives the form on record, which may keep a tag or linker.
UniProt P03372, with tags, fused parts or gaps INS344A: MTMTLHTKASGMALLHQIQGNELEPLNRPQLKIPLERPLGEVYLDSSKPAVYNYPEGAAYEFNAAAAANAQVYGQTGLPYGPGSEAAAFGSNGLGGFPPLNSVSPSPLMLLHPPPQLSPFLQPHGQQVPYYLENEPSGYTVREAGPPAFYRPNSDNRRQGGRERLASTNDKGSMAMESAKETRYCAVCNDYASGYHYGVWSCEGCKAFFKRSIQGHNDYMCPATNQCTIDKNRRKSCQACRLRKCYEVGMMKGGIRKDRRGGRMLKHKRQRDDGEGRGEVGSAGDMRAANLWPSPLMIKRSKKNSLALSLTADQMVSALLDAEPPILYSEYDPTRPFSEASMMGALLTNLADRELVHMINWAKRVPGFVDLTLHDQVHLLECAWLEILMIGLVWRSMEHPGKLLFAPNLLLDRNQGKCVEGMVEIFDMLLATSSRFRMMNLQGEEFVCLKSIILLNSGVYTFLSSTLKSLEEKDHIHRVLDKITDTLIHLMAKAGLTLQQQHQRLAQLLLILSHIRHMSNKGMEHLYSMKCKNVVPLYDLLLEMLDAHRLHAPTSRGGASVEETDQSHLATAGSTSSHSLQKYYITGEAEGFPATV
UniProt P03372, whole entry E380Q: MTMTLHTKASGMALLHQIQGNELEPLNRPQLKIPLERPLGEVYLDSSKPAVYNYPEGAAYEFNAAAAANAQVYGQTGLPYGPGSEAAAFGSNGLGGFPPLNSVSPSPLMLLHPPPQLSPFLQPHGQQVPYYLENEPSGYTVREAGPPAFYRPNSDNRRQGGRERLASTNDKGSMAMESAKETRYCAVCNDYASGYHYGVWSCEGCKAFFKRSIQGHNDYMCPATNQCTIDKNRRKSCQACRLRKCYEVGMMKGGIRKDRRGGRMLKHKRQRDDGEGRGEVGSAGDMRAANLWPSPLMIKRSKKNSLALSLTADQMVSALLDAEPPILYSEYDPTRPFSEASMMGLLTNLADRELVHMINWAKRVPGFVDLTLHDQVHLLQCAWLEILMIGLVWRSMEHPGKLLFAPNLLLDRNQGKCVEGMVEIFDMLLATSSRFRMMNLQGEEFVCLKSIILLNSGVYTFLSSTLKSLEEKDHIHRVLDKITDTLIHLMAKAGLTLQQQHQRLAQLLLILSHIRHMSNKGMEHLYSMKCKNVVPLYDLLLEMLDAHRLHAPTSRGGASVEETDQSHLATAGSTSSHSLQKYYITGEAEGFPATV
UniProt P03372, whole entry: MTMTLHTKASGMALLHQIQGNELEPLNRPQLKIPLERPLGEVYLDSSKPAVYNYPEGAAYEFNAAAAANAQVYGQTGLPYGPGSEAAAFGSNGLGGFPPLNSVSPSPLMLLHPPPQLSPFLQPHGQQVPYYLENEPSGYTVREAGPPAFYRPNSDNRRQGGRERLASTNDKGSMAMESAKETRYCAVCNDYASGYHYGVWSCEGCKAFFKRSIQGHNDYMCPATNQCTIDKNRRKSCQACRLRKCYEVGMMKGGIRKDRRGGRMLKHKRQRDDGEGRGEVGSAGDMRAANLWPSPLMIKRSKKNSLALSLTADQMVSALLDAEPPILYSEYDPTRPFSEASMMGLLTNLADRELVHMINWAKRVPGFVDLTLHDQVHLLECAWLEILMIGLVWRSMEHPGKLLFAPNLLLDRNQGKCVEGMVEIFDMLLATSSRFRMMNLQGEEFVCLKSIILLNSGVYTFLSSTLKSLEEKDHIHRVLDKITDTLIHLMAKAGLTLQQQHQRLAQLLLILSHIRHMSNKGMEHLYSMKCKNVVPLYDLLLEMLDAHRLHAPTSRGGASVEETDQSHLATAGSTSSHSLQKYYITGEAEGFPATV

Experiments:
344insC mutant of ESR1 = 344insC mutant of ESR1 (Homo sapiens, UniProt P03372, INS344A); conditions: 344insC ESR1, inhibitor alone or inhibitor and estrogen, all-in-one method
Experimental: (§1) The luciferase reporter activity was measured 24 hours post-transfection.

[1] = molecular target: E380Q mutant of estrogen receptor (Homo sapiens, UniProt P03372, E380Q); conditions: E380Q ESR1, compound alone or with estrogen
Experimental: as §1

[2] = molecular target: T1, estrogen receptor (wild-type ESR1) (Homo sapiens, UniProt P03372); conditions: HEK 293, estrogen with or without inhibitor for 6 hours
[3] = molecular target: T1, estrogen receptor (wild-type ESR1); conditions: clone #4, serial dilution of inhibitor in the presence of 64 pM of estrogen, 6 hours
Experimental: (§2) The luciferase reporter activity was measured.
as §2, §2, §1

reporter activity (partial agonistic activity) of ER inhibitors (344insC mutant of ESR1): No partial agonistic activity | inhibitory activity on luciferase reporter activity [1]: inhibitory activity was detected | estrogen-induced luciferase reporter activity in the presence of ER inhibitor [2]: reduced
SMILES: C[C@]12CC[C@@H]3c4ccc(O)cc4C[C@@H](CCCCCCCCC[S+]([O-])CCCC(F)(F)C(F)(F)F)[C@H]3[C@@H]1CC[C@@H]2O (stereo partly shown) [fulvestrant]
inhibition of estrogen activation of the reporter [3]: block activation of the reporter by estrogen in a dose dependent manner
